Experimental data reported in patent publication US20220273666A1, “NANOPARTICLE FORMULATION OF BCL-2 INHIBITOR” (Recurium IP Holdings, LLC, priority 2019, published 2022).

Protein sequences, listed by entry. Tags and fused reporters are not part of them.
UniProt P10415, whole entry: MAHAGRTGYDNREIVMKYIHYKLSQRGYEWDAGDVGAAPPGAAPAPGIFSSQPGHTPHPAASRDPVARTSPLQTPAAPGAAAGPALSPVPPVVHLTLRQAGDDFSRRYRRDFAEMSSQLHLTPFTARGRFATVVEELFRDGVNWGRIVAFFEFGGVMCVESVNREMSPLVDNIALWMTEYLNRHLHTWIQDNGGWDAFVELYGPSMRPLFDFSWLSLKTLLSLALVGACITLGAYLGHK

Target: Bcl-2 (Homo sapiens, UniProt P10415)
Assay: Bcl-2/Bcl-XL HTRF assay

## CC1(C)CCC(c2ccc(Cl)cc2)=C(CN2CCN(c3ccc(C(=O)NS(=O)(=O)c4ccc(N[C@H](CCN5CCOCC5)CSc5ccccc5)c(S(=O)(=O)C(F)(F)F)c4)cc3)CC2)C1 [ABT-263, Navitoclax, reference compound]
  IC50: < 10 nM
